Measurements taken from patent US8785468B2, “Phenylalanine amide derivatives useful for treating insulin-related diseases and conditions” (Amgen Inc., priority 2009, dated 2014).

Amino acid sequences for entries named in this document (tags omitted).
UniProt Q7Z601, whole entry: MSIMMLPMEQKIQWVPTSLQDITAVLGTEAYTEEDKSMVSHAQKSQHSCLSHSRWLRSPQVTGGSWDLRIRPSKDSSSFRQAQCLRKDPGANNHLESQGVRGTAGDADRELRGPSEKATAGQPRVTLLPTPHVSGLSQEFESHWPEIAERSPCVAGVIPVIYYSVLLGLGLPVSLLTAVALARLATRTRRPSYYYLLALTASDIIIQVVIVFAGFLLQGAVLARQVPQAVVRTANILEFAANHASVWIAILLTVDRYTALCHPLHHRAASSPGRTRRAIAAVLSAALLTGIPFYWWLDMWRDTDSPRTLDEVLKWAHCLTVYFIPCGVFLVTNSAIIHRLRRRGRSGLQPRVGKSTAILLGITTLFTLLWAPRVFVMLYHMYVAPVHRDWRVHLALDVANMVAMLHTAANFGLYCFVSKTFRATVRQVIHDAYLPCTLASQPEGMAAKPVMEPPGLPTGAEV

Molecular target: human receptor found in pancreatic islet cells (Homo sapiens, UniProt Q7Z601)
Experiment: Activation of intracellular IP3 signaling in transfected cells (Activation Assay)
Settings: read-out: Activity (EC50); calculated from IP3 concentration measurements in cells transfected with the human receptor; tested form: TFA

EC50: 100 to 1000 nM
Compound: Nc1nnc(-c2cc(-c3ccncc3)cc3c2CCN3C(=O)[C@@H](N)Cc2ccccc2)o1
